# AlphaSeq binding of Ab-14 light chain variants to a spike HR2 peptide

The target is the same throughout: PDVDLGDISGINAS, from the HR2 region of SARS-CoV-2 spike.

Parent scFv Ab-14: VH joined to VL by the linker GGGGSGGGGSGGGGS. Changes lie in the light chain CDRs alone.
VH: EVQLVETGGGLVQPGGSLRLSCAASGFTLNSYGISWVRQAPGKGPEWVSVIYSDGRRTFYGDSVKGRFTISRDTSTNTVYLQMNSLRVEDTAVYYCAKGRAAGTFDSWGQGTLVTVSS
VL: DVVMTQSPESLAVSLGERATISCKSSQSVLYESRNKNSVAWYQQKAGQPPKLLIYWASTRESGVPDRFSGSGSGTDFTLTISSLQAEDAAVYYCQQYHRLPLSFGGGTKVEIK

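This is the validation round: designs drawn from the data on random variants, tested in the same kind of assay. Their group label is 14L_En_HC (En: ensemble of fine-tuned language models; HC: hill climbing; a sequence that several methods proposed may carry one label only). In AlphaSeq, yeast of one mating type display the scFv and yeast of the other type display the target. After mating in shaken culture at 30 °C for 16 h, diploids were selected and their barcode pairs sequenced. Each replicate has its own calibration line, from reference interactions of the BCL2 family. The assay was run in six technical replicates.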

Variants are written as CDR1, CDR2 and CDR3 of the light chain (limits as in the source). Parent: KSSQSVLYESRNKNSVA, WASTRES, QQYHRLPLS. Affinities are written as log10 Kd with Kd in nM; a lower number is a better binder. The mean shown is taken over the replicates in which the pair was detected. An entry "n.d." has no value in the source: the pair was not observed among the diploids in that replicate. This suggests poor binding but is not conclusive.

CDR-L1 | CDR-L2 | CDR-L3 | log10 Kd, replicates | log10 Kd (nM), mean | signal with controls
KLYQSMGYLSRMKNSIA | DMSRREN | QQYHRLPLS | 1.93 / 1.84 / 2.85 / 1.76 / 1.55 / 1.86 | 1.97 | 1 of 18 (2.62)
KLGSMVLLEHGNQNSIA | QQSTREE | QQYDRLPLS | 1.02 / 0.97 / 0.81 / 0.82 / 0.83 / 1.02 | 0.91 | 1 of 18 (2.72)
KLRQVTGYENYLRNSVA | QMSTRAE | QDYHRLPLS | 0.84 / 0.22 / 0.51 / 0.24 / 0.39 / 0.70 | 0.48 | 0 of 18
TISQSVMMTGLNRNSVA | QASERIE | QQYHRLPLS | 0.28 / 0.69 / 0.20 / 0.32 / 0.46 / 0.56 | 0.42 | 1 of 18 (2.27)
MVGQGLMGFSRAKNSIA | QASLRED | QQYHRLPLI | 1.09 / 0.96 / 0.86 / 0.98 / 1.17 / 1.12 | 1.03 | 2 of 18 (2.78)
KIYMMTGYQSRNADSIA | DNSTRGR | QQYHRLPLS | 2.30 / 1.24 / n.d. / 1.37 / 1.31 / 2.08 | 1.66 | 0 of 18
MFPQEVMYEQHFRNNVA | QTSTREP | QQYDMLPLS | 1.20 / 0.84 / 0.78 / 0.66 / 0.68 / 0.76 | 0.82 | 0 of 18
HIGDLIMVASRNKNSVA | DESTRPD | QQYHRLPLS | 0.21 / -0.02 / 0.31 / -0.08 / 0.23 / 0.35 | 0.17 | 0 of 18
MLGDTVMQGSYSRNSVA | QESTRAE | QQYHHLPLS | 0.41 / 0.52 / 0.22 / -0.14 / 0.81 / 0.37 | 0.36 | 0 of 18
KLRQITGYESRNKDSIA | DNSTRGR | QQYHRLPLS | 2.33 / 2.42 / 1.63 / 2.23 / n.d. / n.d. | 2.15 | 0 of 18
HMSQVTMYGMWMRNSVA | QTSTREA | QQYDRLPLS | 0.63 / 0.61 / 0.96 / 0.62 / 0.50 / 0.81 | 0.69 | 2 of 18 (3.05)
SVRQSMDGESRNKNSVA | HQSTRED | QHYHRLPLS | 1.45 / 1.28 / 1.81 / 2.05 / 1.42 / 1.34 | 1.56 | 2 of 18 (1.50)
ILYDSVGTLQRNKNSVA | DNSTRES | QQYDRLPLS | n.d. / n.d. / n.d. / n.d. / n.d. / n.d. | n.d. | 0 of 18
NVGQSMDGETRNKNSVA | HQSTRED | QHYHRLPLS | 2.41 / 1.68 / 1.76 / 1.37 / 1.80 / 1.72 | 1.79 | 4 of 18 (2.56)
KLSQMTRMESRNKASVA | ENSTRES | QQYFRLPLS | n.d. / 1.16 / n.d. / n.d. / n.d. / n.d. | 1.16 | 0 of 18
KISQSILFMSGAKNAIA | QMEMREE | QQYHRLPLS | 0.98 / 0.98 / 1.16 / 0.55 / 0.54 / 1.00 | 0.87 | 0 of 18
KISGYLNKESKIKNSVA | EMVNRES | QQYDRLPLS | 1.10 / 1.36 / 0.74 / 1.06 / 1.29 / 0.72 | 1.05 | 1 of 18 (2.34)
HISQYVGMTSRNKNSVA | ENSTRED | QQYDRLPLS | 1.84 / 2.11 / n.d. / 2.09 / 1.91 / 2.49 | 2.09 | 0 of 18
MFSQLTYTGSRTRNAVA | QASTREN | QQYHHLPLA | 0.94 / 0.79 / 0.94 / 0.74 / 1.41 / 0.95 | 0.96 | 0 of 18
KISFQTLIESKNLNSVA | EMTTREY | QDYDRLPLS | n.d. / n.d. / n.d. / n.d. / n.d. / n.d. | n.d. | 0 of 18
NLYQSMNFLQRVMNSIA | DASTIPD | QQYHRLPLS | 2.22 / n.d. / n.d. / 3.16 / 2.86 / n.d. | 2.75 | 1 of 18 (1.99)
MISQSFLIGSKAKNSVA | QTSTRES | QQYDRLPLS | 0.29 / 0.79 / 0.57 / 0.42 / 0.10 / 0.23 | 0.40 | 0 of 18
KLLQSVQYGSRALNSVA | QMSTRED | QQYNRLPLS | 0.47 / 0.45 / 0.21 / 0.09 / 0.08 / 0.42 | 0.29 | 0 of 18
KLREVHHVESKQKNNVA | DNSTRES | QDYYRLPLS | 2.21 / n.d. / n.d. / n.d. / 3.59 / n.d. | 2.90 | 1 of 18 (2.24)
KISMLQRFQNNAKNNIA | EMSRREE | QQYHRLPLS | 0.88 / 0.79 / 0.86 / 0.65 / 0.99 / 0.89 | 0.84 | 0 of 18
KLSATYRFESQNKNSIA | EMSTRES | QCYHRLPLS | n.d. / n.d. / n.d. / n.d. / n.d. / n.d. | n.d. | 0 of 18
MMSQLTYMGSRARNAVA | QAETRVN | QQYHHLPLF | 0.88 / 0.87 / 0.83 / 0.84 / 0.80 / 1.13 | 0.89 | 0 of 18
KLSMSYRHESENKNSIA | ELVTRMS | QQYHRLPLS | n.d. / 1.66 / n.d. / 0.71 / 0.84 / n.d. | 1.07 | 1 of 18 (2.22)
KISQNMGETQRNKNSVA | EVSLVPS | QQYWRLPLS | 0.80 / 0.40 / 0.60 / 1.08 / 2.44 / 1.30 | 1.10 | 0 of 18
TLMQVGGYELNAHNSIA | DLRTREN | QQYHRLPLS | 2.04 / 0.91 / n.d. / 1.11 / 0.87 / 0.59 | 1.10 | 0 of 18
MISDMGLHDSRIQNSVA | NNSTREA | QQYDRLPLT | 2.64 / 3.02 / 2.86 / 3.66 / n.d. / 2.74 | 2.98 | 4 of 18 (3.43)
KIGGVTNGISRNKSSVA | EQSTRED | QQYNRLPLS | 2.11 / 1.28 / 0.77 / 0.97 / 0.92 / 1.84 | 1.32 | 0 of 18
TIGQMFNGVSRNRNSVA | QASTRES | QSYDRLPLS | 1.32 / 2.19 / 1.98 / 1.51 / 1.87 / 1.75 | 1.77 | 1 of 18 (1.95)
KIGQTVTYESTNKNAIA | QMTTRES | QQYHRLPLS | 0.12 / 0.04 / -0.57 / -0.04 / -0.10 / 0.22 | -0.05 | 1 of 18 (2.89)
TISTSALYESINKNSVA | ELSTRGS | QQYDRLPLS | 1.65 / 1.66 / 2.36 / 1.81 / 2.01 / 2.20 | 1.95 | 4 of 18 (2.96)
KLSATYRYESQNKNSIA | EMTTREA | QCYHRLPLS | n.d. / n.d. / n.d. / n.d. / n.d. / n.d. | n.d. | 0 of 18
KVSQSVLMMSRNKNSVA | DNSTSGS | QQYHRLPLS | 2.73 / 3.40 / 1.61 / 3.15 / n.d. / 1.59 | 2.50 | 2 of 18 (3.16)
TISQSLLMQTSHKNNVA | GEQTRYS | QQYHRLPLS | 0.48 / 1.31 / 1.29 / 1.19 / 0.95 / 1.58 | 1.13 | 0 of 18
MISDLTMYGSRNKNSVA | DLSMRGS | QQYHRLPLS | -0.03 / 0.63 / 0.34 / 0.27 / 0.10 / 0.18 | 0.25 | 0 of 18
TISQMFLGESRYRNSVA | QASTRES | QSYDRLPLS | 1.07 / 0.85 / 0.55 / -0.03 / 0.82 / 0.55 | 0.63 | 1 of 18 (1.63)
KLREVNHVESKQKNNVA | DNSTRES | QDYHRLPLS | 2.83 / 2.73 / 2.71 / 2.42 / 2.22 / 2.82 | 2.62 | 2 of 18 (2.84)
KLLQNVMTEGRTRNNVA | HMDMRED | QQYWRLPLS | 1.45 / 0.29 / 0.49 / 1.10 / 0.96 / 0.70 | 0.83 | 0 of 18
HLSDTVMQGSYYRNSVA | QEQTRAD | QQYHHLPLS | 0.40 / 0.83 / 0.34 / 0.07 / 0.25 / 0.54 | 0.41 | 1 of 18 (1.79)
KLPGATMQESVSKNSVA | ELSTRGS | QQYHRLPLS | 0.80 / 0.42 / 0.61 / 0.21 / 0.52 / 0.47 | 0.50 | 0 of 18

Excerpt, the final 7 entries:

{"CDR-L1": "TISQSLLMQTSHKNNVA", "CDR-L2": "GEQTRYS", "CDR-L3": "QQYHRLPLS", "log10 Kd, replicates": "0.48 / 1.31 / 1.29 / 1.19 / 0.95 / 1.58", "log10 Kd (nM), mean": "1.13", "signal with controls": "0 of 18"}
{"CDR-L1": "MISDLTMYGSRNKNSVA", "CDR-L2": "DLSMRGS", "CDR-L3": "QQYHRLPLS", "log10 Kd, replicates": "-0.03 / 0.63 / 0.34 / 0.27 / 0.10 / 0.18", "log10 Kd (nM), mean": "0.25", "signal with controls": "0 of 18"}
{"CDR-L1": "TISQMFLGESRYRNSVA", "CDR-L2": "QASTRES", "CDR-L3": "QSYDRLPLS", "log10 Kd, replicates": "1.07 / 0.85 / 0.55 / -0.03 / 0.82 / 0.55", "log10 Kd (nM), mean": "0.63", "signal with controls": "1 of 18 (1.63)"}
{"CDR-L1": "KLREVNHVESKQKNNVA", "CDR-L2": "DNSTRES", "CDR-L3": "QDYHRLPLS", "log10 Kd, replicates": "2.83 / 2.73 / 2.71 / 2.42 / 2.22 / 2.82", "log10 Kd (nM), mean": "2.62", "signal with controls": "2 of 18 (2.84)"}
{"CDR-L1": "KLLQNVMTEGRTRNNVA", "CDR-L2": "HMDMRED", "CDR-L3": "QQYWRLPLS", "log10 Kd, replicates": "1.45 / 0.29 / 0.49 / 1.10 / 0.96 / 0.70", "log10 Kd (nM), mean": "0.83", "signal with controls": "0 of 18"}
{"CDR-L1": "HLSDTVMQGSYYRNSVA", "CDR-L2": "QEQTRAD", "CDR-L3": "QQYHHLPLS", "log10 Kd, replicates": "0.40 / 0.83 / 0.34 / 0.07 / 0.25 / 0.54", "log10 Kd (nM), mean": "0.41", "signal with controls": "1 of 18 (1.79)"}
{"CDR-L1": "KLPGATMQESVSKNSVA", "CDR-L2": "ELSTRGS", "CDR-L3": "QQYHRLPLS", "log10 Kd, replicates": "0.80 / 0.42 / 0.61 / 0.21 / 0.52 / 0.47", "log10 Kd (nM), mean": "0.50", "signal with controls": "0 of 18"}

Nonspecific signal, from three strains lacking the peptide, appeared in 4% of pairings of all light chain designs, centred on 2.64 (5% of these signals below 1.59); values are not corrected for it. Also given: how often the same scFv was detected with the empty control strains, with their mean in brackets. The parent sequence was in this pool as ten entries: three were never detected, three once, and four in most replicates, with averages from 0.34 to 2.37. The range of this assay differs from that of the first round, and the authors advise against merging the two. The authors averaged sequences with at least three values out of six and counted those with two or fewer as poor binders.

Reference: Li et al. 2023, doi:10.1038/s41467-023-39022-2. File: FLAb, binding data.